Results reported in patent US20040002117A1, “Specific inhibitors of NFAT activation by calcineurin and their use in treating immune-related diseases” (priority 1998, published 2004).
pIC50: −log10 of the molar value.

Experiments:
[1] = target: calcineurin binding to GST-NFAT1 (Homo sapiens, UniProt Q08209); experiment: binding of activated calcineurin to GST-NFAT1(1-415), glutathione-Sepharose collection and Western blotting
Description: FIGS. 5A-5C illustrate that the optimised VIVIT peptide is a potent inhibitor of the interaction between NFAT and calcineurin. In FIG. 5A, the protein-protein interaction between calcineurin and NFAT was assayed by incubating 200 nM calcineurin that had been activated with 600 nM calmodulin and 2 mM CaCl2 with 3 μg GST or GST-NFAT1(1-415) as described (F J Garcia-Cozar et al (1998) J Biol Chem 273, 23877-23883). NFAT1-bound calcineurin was collected by incubation with glutathione-Sepharose resin and detected by Western blotting with a polyclonal antibody to the calcineurin A chain (C Loh et al (1996) J Biol Chem 271, 10884-10891). The peptides SPRIEIT-13 or SPAIAIA-25 (J Aramburu et al (1998) Mol Cell 1, 627-637) or the VIVIT 16-mer peptide were included in the assay where indicated, in the amounts indicated above each lane (in μM).

calcineurin [2] = target: T1, calcineurin (Homo sapiens, UniProt Q08209); experiment: calcineurin phosphatase activity with 32P-labelled phospho-RII peptide as substrate; assay type: biochemical; settings: peptide 100 μM
Description: Inhibition of NFAT dephosphorylation by VIVIT peptide was not due to occlusion of the catalytic site of calcineurin. This point had previously been established for the […] peptide (see Example 4), and was tested here by measuring calcineurin phosphatase activity with ^32P-labelled phospho-RII peptide as substrate (J Aramburu et al (1998) Mol Cell 1, 627-637). SPRIEIT-13, SPAIAIA-25, and VIVIT 16-mer peptides were included in the incubation as indicated. The results are plotted in FIG. 5C as radiolabel released from ^32P-phospho-RII peptide (counts per minute×10^−3). Where peptide was present, its concentration (μM) is indicated in FIG. 5C; CsA/cyclophilin A complexes (CsA/Cyp) were present at 10 μM. […] In contrast, CsA/cyclophilin A complexes inhibited calcineurin phosphatase activity by approximately 95% in this assay, consistent with the established mode of action of CsA/cyclophilin A complexes, which is interference with calcineurin activity against all its peptide and protein substrates.

[3] = target: T2, dephosphorylation of NFAT by calcineurin (Homo sapiens, UniProt Q08209); experiment: in vitro dephosphorylation of NFAT1 in C1.7W2 T cell lysates by recombinant calcineurin; assay type: biochemical; settings: 500 nM calcineurin, 600 nM calmodulin, 30 minutes at 30° C.; INCA2 at micromolar concentrations
calcineurin [4] = target: T1, calcineurin; experiment: calcineurin phosphatase assay with phosphorylated RII peptide, Malachite green detection; assay type: biochemical; settings: 100 μM INCA compound or 100 μM VIVIT peptide; 6.8 nM calcineurin, 15 min at 25° C.
Description: The phosphatase activity of calmodulin-activated calcineurin was assayed photometrically using phosphorylated RII peptide as substrate and Malachite green for detection (BIOMOL Research Laboratories). […] DMSO concentration was kept constant in all samples. Release of free phosphate, calibrated to known standards, was 12-18 pmol/min under the conditions described and was not affected by the presence of dimethyl sulfoxide (DMSO), VIVIT peptide, INCA2, or any of the other 10 INCA compounds described in Example 18. The data are plotted as a bar graph in FIG. 11B, which also includes data for two of the negative control compounds from the chemical library (NEG-1 and NEG-2).

[5] = target: T2, dephosphorylation of NFAT by calcineurin; experiment: calcineurin-mediated dephosphorylation of HA-NFAT1(1-460)-GFP in HeLa cell lysates; assay type: biochemical; design: host or cells: Exogenous calcineurin added to extracts of HeLa (A4, A14) or HEK-293 (A8) cells expressing the NFAT1 fusion
Description: Lysates of HeLa cells stably expressing HA-NFAT1(1-460)-GFP (hereinafter “HA-NFAT1”) were incubated with 200 nM calcineurin plus 600 nM calmodulin and 2 mM CaCl2 for 30 min at 30 C. in buffer as described (J Aramburu et al (1998) Mol Cell 1, 627-637). The phosphorylation status of NFAT was evaluated by SDS-polyacrylamide gel electrophoresis and Western blotting with anti-HA antibody 12CA5. For these experiments, reaction conditions were chosen that produced only limited dephosphorylation of NFAT (FIG. 5B, lane 2) in order to maximize the sensitivity of the assay in detecting inhibition. The SPRIEIT-13 (lanes 3-6), VIVIT 16-mer (lanes 7-9), and SPAIAIA-25 (lane 10) peptides were again included in the assay where indicated, in the amounts indicated above each lane (in μM). […] Both the VIVIT peptide and the […] peptide were effective at inhibiting NFAT dephosphorylation.

[6] = target: calcineurin binding to NFAT1 (Homo sapiens, UniProt Q08209); experiment: 125I-calcineurin binding to GST-NFAT1(1-400) immobilized on glutathione-Sepharose beads; settings: 125I-labelled calcineurin 14 nM, 30 min at 4° C., read-out: IC50 for inhibition of the binding of calcineurin to NFAT1
Description: (§1) ^125I-labelled calcineurin (14 nM, −7×10^5 cpm) was incubated for 30 min at 4° C. with GST-tagged NFAT1 N-terminal domain (GST NFAT1(1-400)) that had been immobilized on glutathione-Sepharose™ beads (Pharmacia Biotech, Piscataway, N.J.), in the absence or presence of different concentrations (1 μM to 100 μM) of wild type 13-mer peptide, wild type 26-mer peptide, or CM2 mutant 26-mer peptide. At the end of the incubation, the glutathione Sepharose beads with bound NFAT1-calcineurin complexes were washed on 5 μm hydrophilic Durapore PVDF filters (Millipore Corporation, Bedford, Mass.) to remove unbound calcineurin, and NFAT1-bound calcineurin was quantitated using a gamma counter. Both peptides incorporating the wild type sequence […] (SEQ ID NO:17) inhibited the binding of calcineurin to NFAT1.

[7] = target: calcineurin binding to NFAT2 (Homo sapiens, UniProt Q08209); experiment: 125I-calcineurin binding to GST-tagged N-terminal domain of NFAT2 (residues 1-418); settings: GST-NFAT2 (residues 1-418), read-out: IC50 for inhibition of NFAT2 calcineurin binding
Description: as §1
(§2) The […] (SEQ ID NO:17) sequence of NFAT1 is highly conserved in NFAT2, but only partially conserved in NFAT4 which has a […] (SEQ ID NO:20) sequence. NFAT1, NFAT2 and NFAT4 constitute the group of NFAT members expressed in immune cells. The inhibitory effect of the […] peptides, 13-mer and 26-mer, of NFAT1 on the binding of calcineurin to NFAT1, NFAT2 and NFAT4 was tested. […]

[8] = target: calcineurin binding to NFAT4 (Homo sapiens, UniProt Q08209); experiment: 125I-calcineurin binding to GST-tagged N-terminal domain of NFAT4 (residues 1-400); settings: GST-NFAT4 (residues 1-400), read-out: IC50 for inhibition of NFAT4 calcineurin binding
Description: as §1, §2

Row | inhibition of the binding of activated calcineurin to GST-NFAT1 ([1]; 200 nM calcineurin, 600 nM calmodulin, 2 mM CaCl2, peptide amounts as in FIG. 5A) | inhibition of calcineurin binding to GST-NFAT1 ([1]; peptide 100 μM) | inhibition of calcineurin phosphatase activity towards the RII phosphopeptide (calcineurin [2]) | dephosphorylation of NFAT by calcineurin in vitro [3] | release of free phosphate from RII phosphopeptide (calcineurin [4]) | inhibition of NFAT dephosphorylation ([5]; 200 nM calcineurin, 600 nM calmodulin, 30 min at 30 C., peptide amounts as in FIG. 5B) | inhibition of NFAT1 dephosphorylation ([5]; peptide 100 μM) | pIC50 [6] | pIC50 [7] | pIC50 [8] | Molecule
1 | inhibited | completely blocks | did not inhibit | blocked | not affected | effective | completely blocks |  |  |  | MAGPHPVIVITGPHEE [VIVIT 16-mer peptide]
2 |  |  |  |  |  |  |  | ~4.82 |  |  | CC[C@H](C)[C@H](NC(=O)[C@H](CCCNC(=N)N)NC(=O)[C@@H]1CCCN1C(=O)[C@H](CO)NC(=O)[C@@H]1CCCN1C(=O)CNC(=O)[C@@H](N)CO)C(=O)N[C@@H](CCC(=O)O)C(=O)N[C@H](C(=O)N[C@H](C(=O)N1CCC[C@H]1C(=O)N[C@@H](CO)C(=O)N[C@@H](Cc1c[nH]cn1)C(=O)O)[C@@H](C)O)[C@@H](C)CC [wild type 13-mer peptide]
3 |  |  |  |  |  |  |  | ~4.82 | ~4.82 | ~4.82 | CC[C@H](C)[C@H](NC(=O)[C@H](CCCNC(=N)N)NC(=O)[C@@H]1CCCN1C(=O)[C@H](CO)NC(=O)[C@@H]1CCCN1C(=O)CNC(=O)[C@H](CO)NC(=O)[C@H](C)NC(=O)CNC(=O)[C@H](C)NC(=O)[C@@H]1CCCN1C(=O)[C@@H](N)CCCCN)C(=O)N[C@@H](CCC(=O)O)C(=O)N[C@H](C(=O)N[C@H](C(=O)N1CCC[C@H]1C(=O)N[C@@H](CO)C(=O)N[C@@H](Cc1c[nH]cn1)C(=O)N[C@@H](CCC(=O)O)C(=O)N[C@@H](CC(C)C)C(=O)N[C@@H](CCSC)C(=O)N[C@@H](CCC(N)=O)C(=O)N[C@@H](C)C(=O)NCC(=O)NCC(=O)N[C@@H](Cc1ccc(O)cc1)C(=O)O)[C@@H](C)O)[C@@H](C)CC [wild type 26-mer peptide]
